One may read the viability as a read-out of living cells in per cent, often relative to untreated cells.

The structures appear in SMILES notation. This is a selection; strong and weak results do not stand in their true shares. Active and inactive are the calls of the source.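 The calls were made as follows: active = viability at or under a set limit, the compound median less 4 SD (cut at about 6% in these data); inactive = the rest.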

The experiment can be described thus: primary screen for growth suppressors in beta-catenin knockout HCT116 cells (colon tumor, human) (AID 818).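 Also: 0% = Hyamine 1622 control at 20 µM and 100% = untreated cell control.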 The note with it: CellTiter-Glo, 60 h, at 10 µM, hits give low values. For orientation: Cellular ATP, detected with luciferase, serves as a proxy for viable cell number.
As to `CN(C)CCOC(=O)C(O)(c1ccccc1)C1CCCC1` (centres undefined), the viability is inactive: 101%. To `COc1ccc(OP(C)(=O)Nc2ccccn2)cc1` (centres undefined) belongs inactive: 108%; to `Cc1c(NP(C)(=O)Oc2ccc(C(C)C)cc2)c(=O)n(-c2ccccc2)n1C` (centres undefined), inactive: 101%; to `CCc1ccc(OP(C)(=O)O)cc1`, inactive: 82.9%.

With `COc1ccccc1OP(C)(=O)Nc1ccc(C)cc1C` (centres undefined), the viability was inactive: 96%. To `CP(=O)(Nc1ccccn1)Oc1ccccc1` (centres undefined) belongs inactive: 95.4%; to `COc1ccc(OP(C)(=O)Nc2ccccc2Br)cc1` (centres undefined), inactive: 101%; to `COc1ccccc1OP(C)(=O)Nc1ccc(C)c(C)c1` (centres undefined), inactive: 103%. Regarding `Cc1nc2ccc3ccccc3c2o1.O=[N+]([O-])c1cc([N+](=O)[O-])c(O)c([N+](=O)[O-])c1`, the viability was inactive: 88.1%. To `CP(=O)(OC12CC3CC(CC(C3)C1)C2)OC12CC3CC(CC(C3)C1)C2` belongs inactive: 78.8%; to `CCOC(=O)c1ccc(NP(C)(=O)Oc2ccc(Cl)cc2)cc1` (centres undefined), inactive: 97.8%. As for `COc1ccc(OP(C)(=O)Nc2ccc(Br)cc2)cc1` (centres undefined), the figure is inactive: 91%.

On to `CCN(CC)CC(O)COC(=O)C(O)(c1ccccc1)C1CCCCC1` (centres undefined), for which the viability was inactive: 102%.

On to `CP(=O)(Oc1ccccc1)N1CCOC1=O` (centres undefined), for which the viability is inactive: 96.7%. Consider `CP(=O)(Nc1ccc(Cl)cc1)Oc1ccc(F)cc1` (centres undefined), for which the viability is inactive: 76.9%. For `CC(C)(C)c1ccc(OP(C)(=O)O)cc1`, the viability was inactive: 91%. For the compound `CCOP(C)(=S)SCC(=O)NC(C)(CC)C(=O)O` (centres undefined), the viability is inactive: 78.4%. To `CP(=O)(Nc1ccc2c(c1)OCCO2)Oc1ccccc1` (centres undefined) belongs inactive: 94.5%. As for `Cc1ccccc1NP(C)(=O)Nc1ccccc1C`, the figure is inactive: 87.8%; as for `COc1ccc(OP(C)(=O)Nc2cccc(Br)c2)cc1` (centres undefined), inactive: 89.3%; as for `CN(C)CCOC(=O)C(O)(c1ccccc1)C1CCCCC1` (centres undefined), inactive: 108%. As to `CCOC(=O)c1ccc(NP(C)(=O)Oc2ccc(F)cc2)cc1` (centres undefined), the viability is inactive: 84.4%. In the case of `CCN(CC)CCCOC(=O)C(O)(c1ccccc1)C1CCCCC1` (centres undefined), the viability is inactive: 88.6%.

Consider `CP(=O)(Nc1ccccc1)Oc1ccc(F)cc1` (centres undefined), for which the viability is inactive: 109%. To `CC(C)c1ccc(OP(C)(=O)Nc2ccc(SC(F)(F)F)cc2)cc1` (centres undefined) belongs inactive: 70.3%; to `CP(=O)(Nc1ccccc1F)Oc1ccccc1` (centres undefined), inactive: 95.1%; to `O=C(OCCN1CCN(CCOCc2ccccc2)CC1)C(O)(c1ccccc1)c1ccccc1`, inactive: 84.9%. As for `Cc1cc(C)cc(OP(C)(=O)Nc2ccc(C)cc2C)c1` (centres undefined), the figure is inactive: 94.3%; as for `CCOC(=O)c1ccc(NP(C)(=O)Oc2cc(C)cc(C)c2)cc1` (centres undefined), inactive: 62.8%; as for `Cc1cc(C)cc(OP(C)(=O)Nc2ccccn2)c1` (centres undefined), inactive: 87.7%. Take `Cc1ccc(C)c(NP(C)(=O)Oc2ccccc2)c1` (centres undefined): the viability was inactive: 94.1%. To `CC1=NCCc2c1[nH]c1ccccc21.O=[N+]([O-])c1cc([N+](=O)[O-])c(O)c([N+](=O)[O-])c1` belongs inactive: 94.8%; to `CN1CCCCC1COC(=O)C1(O)c2ccccc2CCc2ccccc21` (centres undefined), inactive: 75.3%. To `COc1ccccc1OP(C)(=O)Nc1c(C)cccc1C` (centres undefined) belongs inactive: 106%; to `CP(=O)(Nc1ccc(SC(F)(F)F)cc1)Oc1ccccc1` (centres undefined), inactive: 71.6%. As for `Cc1nc2ccc3ccccc3c2s1.O=[N+]([O-])c1cc([N+](=O)[O-])c(O)c([N+](=O)[O-])c1`, the figure is inactive: 101%. Regarding `Cc1cccc(C)c1OP(C)(=O)Nc1ccc(SC(F)(F)F)cc1` (centres undefined), the viability was inactive: 31.9%. With `Cc1cc(C)cc(OP(C)(=O)Nc2ccc(SC(F)(F)F)cc2)c1` (centres undefined), the viability is inactive: 87.9%.

On to `CP(=O)(NC(=O)Nc1ccccc1)Oc1ccccc1` (centres undefined), for which the viability was inactive: 97%. To `CCOP(C)(=S)SCC(=O)NC(C)C(=O)O` (centres undefined) belongs inactive: 97.5%; to `CCOC(=O)c1ccc(NP(C)(=O)Oc2ccc(OC)cc2)cc1` (centres undefined), inactive: 94.8%. As to `CP(=O)(Nc1ccccn1)Oc1ccc(Cl)cc1` (centres undefined), the viability was inactive: 102%.

In the case of `CP(=S)(Nn1cnnc1)Oc1ccccc1` (centres undefined), the viability is inactive: 103%. As for `CP(=O)(Nc1ccccc1Br)Oc1ccccc1` (centres undefined), the figure is inactive: 90.7%; as for `CC(C)(C)c1ccc(OP(C)(=O)Nc2ccc(SC(F)(F)F)cc2)cc1` (centres undefined), inactive: 81.9%; as for `CCOC(=O)c1ccc(NP(C)(=O)Oc2ccccc2)cc1` (centres undefined), inactive: 86.1%. Regarding `Cc1ccc(NP(C)(=O)Oc2ccccc2)c(C)c1` (centres undefined), the viability was inactive: 93.9%. `COc1ccccc1OP(C)(=O)Nc1ccc(C)cc1` (centres undefined): the viability was inactive: 98%.

Regarding `COc1ccc(OP(C)(=O)Nc2cccc(F)c2)cc1` (centres undefined), the viability is inactive: 97.5%.
